Experimental data reported in ChEMBL document CHEMBL2331553, “Discovery of N-[[1-[2-(tert-butylcarbamoylamino)ethyl]-4-(hydroxymethyl)-4-piperidyl]methyl]-3,5-dichloro-benzamide as a selective T-type calcium channel (Cav3.2) inhibitor” (Bioorg Med Chem Lett, 2013).

By UniProt entry, the sequences of proteins in these tests, tags left out.
UniProt P08684, whole entry: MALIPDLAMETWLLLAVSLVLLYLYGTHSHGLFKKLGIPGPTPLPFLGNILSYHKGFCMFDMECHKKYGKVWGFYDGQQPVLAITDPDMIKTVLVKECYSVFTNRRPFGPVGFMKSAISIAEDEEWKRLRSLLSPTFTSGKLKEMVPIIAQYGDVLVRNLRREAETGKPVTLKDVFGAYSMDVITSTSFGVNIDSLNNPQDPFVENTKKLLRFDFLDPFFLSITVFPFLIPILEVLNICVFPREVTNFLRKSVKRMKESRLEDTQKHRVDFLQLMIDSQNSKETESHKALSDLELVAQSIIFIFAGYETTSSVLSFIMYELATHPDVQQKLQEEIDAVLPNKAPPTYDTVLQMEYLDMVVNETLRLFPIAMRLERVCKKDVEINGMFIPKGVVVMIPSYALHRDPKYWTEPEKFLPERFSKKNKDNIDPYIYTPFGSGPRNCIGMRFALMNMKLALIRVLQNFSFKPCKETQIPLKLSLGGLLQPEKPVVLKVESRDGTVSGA
UniProt P05177, whole entry: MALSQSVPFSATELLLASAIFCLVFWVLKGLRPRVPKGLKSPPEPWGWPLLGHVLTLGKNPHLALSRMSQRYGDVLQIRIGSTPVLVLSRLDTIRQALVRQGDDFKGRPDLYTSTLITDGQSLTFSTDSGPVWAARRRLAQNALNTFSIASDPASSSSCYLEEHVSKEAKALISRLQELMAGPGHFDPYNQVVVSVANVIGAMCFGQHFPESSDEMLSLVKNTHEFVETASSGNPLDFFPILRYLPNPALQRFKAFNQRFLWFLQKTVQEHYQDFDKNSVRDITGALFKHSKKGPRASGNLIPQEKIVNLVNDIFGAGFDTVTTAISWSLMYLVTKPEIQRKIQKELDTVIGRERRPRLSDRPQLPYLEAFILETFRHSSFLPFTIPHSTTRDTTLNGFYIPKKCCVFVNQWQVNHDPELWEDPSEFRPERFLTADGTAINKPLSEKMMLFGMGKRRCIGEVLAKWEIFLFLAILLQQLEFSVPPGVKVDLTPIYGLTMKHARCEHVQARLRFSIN

Key:
[1] = target: Cytochrome P450 3A4 (Homo sapiens, UniProt P08684); test: Inhibition of human recombinant CYP3A4; assay type: ADME
[2] = target: Cytochrome P450 1A2 (Homo sapiens, UniProt P05177); test: Inhibition of human recombinant CYP1A2; assay type: ADME

IC50 [1]: > 10 µM | IC50 [2]: > 10 µM
Compound: CC(C)(C)NC(=O)NCCN1CCC(CO)(CNC(=O)c2cc(Cl)cc(Cl)c2)CC1
